Assays:
[1] = molecular target: T1, Polyunsaturated fatty acid lipoxygenase ALOX15 (Homo sapiens) (UniProt P16050); experiment: Inhibition of 15-LO1-mediated 15-HPETE formation in human eosinophil using arachidonic acid as substrate assessed as residual activity at 50 uM preincubated for 15 mins before substrate addition measured after 10 mins
T1 sequence (whole entry): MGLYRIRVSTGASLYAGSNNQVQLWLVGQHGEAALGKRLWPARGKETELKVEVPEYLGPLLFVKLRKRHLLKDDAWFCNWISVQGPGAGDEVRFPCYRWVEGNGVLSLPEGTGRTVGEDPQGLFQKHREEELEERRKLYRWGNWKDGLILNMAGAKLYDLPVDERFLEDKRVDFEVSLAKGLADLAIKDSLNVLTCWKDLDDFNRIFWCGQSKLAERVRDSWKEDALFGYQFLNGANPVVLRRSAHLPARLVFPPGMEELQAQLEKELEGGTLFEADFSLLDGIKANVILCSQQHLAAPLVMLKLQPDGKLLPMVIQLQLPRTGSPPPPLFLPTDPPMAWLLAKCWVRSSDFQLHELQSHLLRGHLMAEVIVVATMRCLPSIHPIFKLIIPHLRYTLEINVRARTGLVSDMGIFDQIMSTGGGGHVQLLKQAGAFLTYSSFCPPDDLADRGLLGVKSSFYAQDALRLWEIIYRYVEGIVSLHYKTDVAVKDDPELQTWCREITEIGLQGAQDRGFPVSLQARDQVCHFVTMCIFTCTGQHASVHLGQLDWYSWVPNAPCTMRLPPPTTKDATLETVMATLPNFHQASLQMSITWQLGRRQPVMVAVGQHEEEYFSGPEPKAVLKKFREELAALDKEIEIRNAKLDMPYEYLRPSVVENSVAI
Procedure, shortened: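 Freshly isolated human PMNL (5 × 10^6/ml PBS-glucose, 1 mM CaCl2), with 15-LO1 from contaminating eosinophils, preincubated with compound 15 min at 37 °C; stimulated with 2.5 µM A23187 plus 20 µM AA for 10 min at 37 °C, methanol stop. 15-H(P)ETE peak quantified by HPLC as percent of DMSO control; n ≥ 3, mean ± S.E.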

Chains of the proteins cited; added tags and fusions are not shown.
UniProt P23219, whole entry: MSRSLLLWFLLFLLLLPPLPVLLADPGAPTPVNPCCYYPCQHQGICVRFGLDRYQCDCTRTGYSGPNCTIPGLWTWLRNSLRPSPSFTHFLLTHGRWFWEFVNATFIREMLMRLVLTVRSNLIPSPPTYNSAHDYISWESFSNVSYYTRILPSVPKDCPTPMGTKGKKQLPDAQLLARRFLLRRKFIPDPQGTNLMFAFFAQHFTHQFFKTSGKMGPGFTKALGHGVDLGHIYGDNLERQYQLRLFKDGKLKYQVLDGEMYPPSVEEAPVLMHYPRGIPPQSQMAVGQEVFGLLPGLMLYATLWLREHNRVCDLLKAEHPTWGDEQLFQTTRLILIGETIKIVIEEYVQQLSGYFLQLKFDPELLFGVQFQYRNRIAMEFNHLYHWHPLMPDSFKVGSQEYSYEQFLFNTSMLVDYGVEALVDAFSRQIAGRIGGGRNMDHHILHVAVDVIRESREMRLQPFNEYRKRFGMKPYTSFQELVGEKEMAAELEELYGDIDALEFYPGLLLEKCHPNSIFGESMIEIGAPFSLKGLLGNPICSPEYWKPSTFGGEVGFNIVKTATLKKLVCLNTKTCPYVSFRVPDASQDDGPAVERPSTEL

[2] = molecular target: Prostaglandin G/H synthase 1 (Homo sapiens) (UniProt P23219); experiment: Inhibition of COX1 in human platelets using arachidonic acid as substrate assessed as residual activity at 50 uM preincubated for 15 mins before substrate addition measured after 10 mins
Procedure, shortened: (§1)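 Freshly isolated human platelets (10^8 in 1 ml PBS pH 7.4 with 1 mg/ml glucose and 1 mM CaCl2) preincubated with compound or DMSO 15 min at 37 °C, then 10 µM AA added; 10 min at 37 °C, stopped with ice-cold methanol. HPLC: 12-H(P)ETE for 12-LO, 12-HHT for COX-1; percent of DMSO control, n ≥ 3, mean ± S.E.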

[3] = molecular target: T2, Polyunsaturated fatty acid lipoxygenase ALOX12 (Homo sapiens) (UniProt P18054); experiment: Inhibition of 12-LO-mediated 12-HPETE formation in human platelets using arachidonic acid as substrate assessed as residual activity at 50 uM preincubated for 15 mins before substrate addition measured after 10 mins; procedure, shortened: as §1
T2 sequence (whole entry): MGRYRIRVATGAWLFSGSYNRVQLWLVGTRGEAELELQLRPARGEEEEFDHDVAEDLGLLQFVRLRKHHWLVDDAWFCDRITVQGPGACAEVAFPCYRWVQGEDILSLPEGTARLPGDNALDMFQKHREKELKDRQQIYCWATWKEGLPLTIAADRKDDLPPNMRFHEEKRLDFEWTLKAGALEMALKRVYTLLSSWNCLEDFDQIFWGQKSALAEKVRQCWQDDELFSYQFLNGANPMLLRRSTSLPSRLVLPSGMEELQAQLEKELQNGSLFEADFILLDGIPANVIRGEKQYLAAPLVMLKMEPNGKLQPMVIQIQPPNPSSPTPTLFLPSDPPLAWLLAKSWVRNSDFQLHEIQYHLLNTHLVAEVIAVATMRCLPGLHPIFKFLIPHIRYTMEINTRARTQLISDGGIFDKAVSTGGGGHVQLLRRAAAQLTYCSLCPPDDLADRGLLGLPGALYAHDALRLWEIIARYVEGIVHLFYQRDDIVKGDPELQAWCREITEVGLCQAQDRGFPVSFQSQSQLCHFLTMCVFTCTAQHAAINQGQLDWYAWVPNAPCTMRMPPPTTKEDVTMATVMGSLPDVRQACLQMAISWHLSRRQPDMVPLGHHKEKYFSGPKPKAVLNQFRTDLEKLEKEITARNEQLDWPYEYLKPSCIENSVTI

Oc1ccc(Nc2nc(-c3ccc(F)cc3)cs2)cc1
Activity [1]: > 70%
Activity [2]: 26.3%
Activity [3]: 56.7%

— ChEMBL document CHEMBL3352533, “Multi-dimensional target profiling of N,4-diaryl-1,3-thiazole-2-amines as potent inhibitors of eicosanoid metabolism” (Eur J Med Chem, 2014)
